Reference: patent US12528818B2, “Compositions and methods for inhibition of RAS” (Leidos Biomedical Research, Inc., priority 2021, dated 2026)
One block for each compound: values may come before it.

Tests used:
[1] = biological target: Avi-KRAS G12C (1-169) GppNHp/RAF1 RBD-3xFLAG (52-151) (Homo sapiens, UniProt P01116, G12C); test: biochemical; conditions: Raf1-GppNHp-KRAS G12C disruption, Raf1 RBD-KRAS G12C-GppNHp disruption assay IC50
[2] = biological target: GDP-loaded KRAS4b (amino acids 1-169) G12C/C118S protein (Homo sapiens, UniProt P01116, C118S/G12C); test: Covalent cysteine 12 modification by MALDI-TOF MS, GDP-loaded KRAS G12C; format: biochemical; conditions: 15 minutes reaction time
[3] = biological target: GppNHp-loaded KRAS4b (amino acids 1-169) G12C/C118S protein (Homo sapiens, UniProt P01116, C118S/G12C); test: Covalent cysteine 12 modification by MALDI-TOF MS, GppNHp-loaded KRAS G12C; format: biochemical; conditions: 15 minutes reaction time
[4] = compound 95 or later using 1 μM proteins
[5] = compounds 94 or before using 5 μM proteins

IC50 [1]: > 20 µM
GDP-KRAS G12C percent of modification [2, 4]: C (10%≤percent of modification <50%)
GppNHp-KRAS G12C percent of modification [3, 4]: D (percent of modification <10%)
SMILES: CC#CC(=O)N1CCN(c2nc(OCC34CCCN3CC(F)(F)C4)nc3c(F)c(-c4ccc(F)c5sc(N)nc45)c(C(F)(F)F)cc23)CC1 (stereo not drawn) [Compound 193]

IC50 [1]: < 0.5 µM
GDP-KRAS G12C percent of modification [2, 4]: A (percent of modification ≥70%)
GppNHp-KRAS G12C percent of modification [3, 4]: C (10%≤percent of modification <50%)
SMILES: C=CC(=O)N1CCC[C@@H](N(C)c2nc(OC[C@@]34CCCN3C[C@H](F)C4)nc3c(F)c(-c4ccc(F)c5sc(N)nc45)c(Cl)cc23)C1 (atropisomer, axis not shown) [Compound 241]

IC50 [1]: > 20 µM
GDP-KRAS G12C percent of modification [2, 5]: A (percent of modification ≥70%)
GppNHp-KRAS G12C percent of modification [3, 5]: D (percent of modification <10%)
SMILES: C=CC(=O)N1CCN(c2ncnc3c(F)c(-c4ccc(F)c5sc(N)nc45)c(CC#N)cc23)CC1 [Compound 72]

IC50 [1]: 0.5 to 5 µM
GDP-KRAS G12C percent of modification [2, 5]: A (percent of modification ≥70%)
GppNHp-KRAS G12C percent of modification [3, 5]: B (50≤percent of modification <70%)
SMILES: CCOC(=O)/C=C/C(=O)N1CC(Nc2ncnc3c(F)c(-c4ccc(F)c5sc(N)nc45)c(Cl)cc23)C1 [Compound 24]

IC50 [1]: 0.5 to 5 µM
GDP-KRAS G12C percent of modification [2, 4]: C (10%≤percent of modification <50%)
GppNHp-KRAS G12C percent of modification [3, 4]: D (percent of modification <10%)
SMILES: C=CC(=O)N1CC[C@@H](N(C)c2nc(OC[C@@H]3C[C@@H](F)CN3C3CC3)nc3c(F)c(-c4ccc(F)c5sc(N)nc45)c(C(F)(F)F)cc23)C1 [Compound 273]

IC50 [1]: 5 to 20 µM
GDP-KRAS G12C percent of modification [2, 5]: A (percent of modification ≥70%)
GppNHp-KRAS G12C percent of modification [3, 5]: C (10%≤percent of modification <50%)
SMILES: C=CC(=O)N(C)CCNc1nc(OC[C@@H]2CCCN2C)nc2c(F)c(-c3ccc(F)c4sc(N)nc34)c(Cl)cc12 [Compound 38]

IC50 [1]: < 0.5 µM
GDP-KRAS G12C percent of modification [2, 5]: A (percent of modification ≥70%)
GppNHp-KRAS G12C percent of modification [3, 5]: A (percent of modification ≥70%)
SMILES: C=CC(=O)N1CC(Nc2nc(OCC34CCCN3CCC4)nc3c(F)c(-c4ccc(F)c5sc(N)nc45)c(-c4ccoc4)cc23)C1 [Compound 70, 1-(3-((7-(2-amino-7-fluorobenzo[d]thiazol-4-yl)-8-fluoro-6-(furan-3-yl)-2-((tetrahydro-1H-pyrrolizin-7a(5H)-yl)methoxy)quinazolin-4-yl)amino)azetidin-1-yl)prop-2-en-1-one]

IC50 [1]: > 20 µM
GDP-KRAS G12C percent of modification [2, 5]: A (percent of modification ≥70%)
GppNHp-KRAS G12C percent of modification [3, 5]: C (10%≤percent of modification <50%)
SMILES: C=CC(=O)N1CC(Nc2nc(OC[C@@H]3CCCN3C)nc3c(F)c(-c4ccc(F)c5sc(N)nc45)ncc23)C1 [Compound 43]

IC50 [1]: 0.5 to 5 µM
GDP-KRAS G12C percent of modification [2, 4]: B (50≤percent of modification <70%)
GppNHp-KRAS G12C percent of modification [3, 4]: D (percent of modification <10%)
SMILES: C=CC(=O)N1CCN(c2nc(OC[C@@H]3CC(F)(F)CN3C)nc3c(F)c(-c4ccc(F)c5sc(N)nc45)c(C(F)(F)F)cc23)CC1 [Compound 131]

Second part, the compound before the results:

SMILES: C=CC(=O)N1CC2CC1CN(c1ncnc3c(F)c(-c4ccc(F)c5sc(N)nc45)c(Cl)cc13)C2 (stereo not drawn) [Compound 259]
IC50 [1]: > 20 µM
GDP-KRAS G12C percent of modification [2, 4]: D (percent of modification <10%)
GppNHp-KRAS G12C percent of modification [3, 4]: D (percent of modification <10%)

SMILES: C=CC(=O)N1CC[C@@H]2[C@H]1CN2c1nc(OCC23CCCN2CCC3)nc2c(F)c(-c3ccc(F)c4sc(N)nc34)c(Cl)cc12 [Compound 65]
IC50 [1]: 0.5 to 5 µM
GDP-KRAS G12C percent of modification [2, 5]: A (percent of modification ≥70%)
GppNHp-KRAS G12C percent of modification [3, 5]: C (10%≤percent of modification <50%)

SMILES: CC(C)/C=C(\C#N)C(=O)N1CC(Nc2ncnc3c(F)c(-c4ccc(F)c5sc(N)nc45)c(Cl)cc23)C1 [Compound 78]
IC50 [1]: > 20 µM
GDP-KRAS G12C percent of modification [2, 5]: D (percent of modification <10%)
GppNHp-KRAS G12C percent of modification [3, 5]: D (percent of modification <10%)

SMILES: C=CC(=O)N1CC(N(c2nc(OCC34CCCN3CCC4)nc3c(F)c(-c4ccc(F)c5sc(N)nc45)c(Cl)cc23)C2CC2)C1 [Compound 151]
IC50 [1]: 0.5 to 5 µM
GDP-KRAS G12C percent of modification [2, 4]: A (percent of modification ≥70%)
GppNHp-KRAS G12C percent of modification [3, 4]: D (percent of modification <10%)

SMILES: C=CC(=O)N1CCN(c2nc(OC[C@@H]3CCCN3C)nc3c(F)c(-c4ccc(F)c5sc(N)nc45)c(-c4ccoc4)cc23)CC1 [Compound 98]
IC50 [1]: 0.5 to 5 µM
GDP-KRAS G12C percent of modification [2, 4]: A (percent of modification ≥70%)
GppNHp-KRAS G12C percent of modification [3, 4]: C (10%≤percent of modification <50%)

SMILES: Nc1nc2c(-c3c(Cl)cc4c(NC5CN(C(=O)CCl)C5)ncnc4c3F)ccc(F)c2s1 [Compound 5, 1-(3-((7-(2-amino-7-fluorobenzo[d]thiazol-4-yl)-6-chloro-8-fluoroquinazolin-4-yl)amino)azetidin-1-yl)-2-chloroethan-1-one]
IC50 [1]: 0.5 to 5 µM
GDP-KRAS G12C percent of modification [2, 5]: A (percent of modification ≥70%)
GppNHp-KRAS G12C percent of modification [3, 5]: A (percent of modification ≥70%)

SMILES: C=CC(=O)N1CCN(c2nc(OCC34CCCN3CCC4)nc3c(F)c(-c4ccc(F)c5sc(N)nc45)c(Cl)cc23)CC1 [Compound 67]
IC50 [1]: < 0.5 µM
GDP-KRAS G12C percent of modification [2, 5]: A (percent of modification ≥70%)
GppNHp-KRAS G12C percent of modification [3, 5]: A (percent of modification ≥70%)

SMILES: Nc1nc2c(-c3c(C(F)(F)F)cc4c(NC5CN(C(=O)C6CN6)C5)nc(OCC56CCCN5CCC6)nc4c3F)ccc(F)c2s1 (stereo not drawn) [Compound 243, (3-((7-(2-amino-7-fluorobenzo[d]thiazol-4-yl)-8-fluoro-2-((tetrahydro-1H-pyrrolizin-7a(5H)-yl)methoxy)-6-(trifluoromethyl)quinazolin-4-yl)amino)azetidin-1-yl)(aziridin-2-yl)methanone]
IC50 [1]: 0.5 to 5 µM
GDP-KRAS G12C percent of modification [2, 4]: D (percent of modification <10%)
GppNHp-KRAS G12C percent of modification [3, 4]: D (percent of modification <10%)

SMILES: C=CC(=O)N1CCN(c2nc(OC[C@]34CCCN3C[C@H](F)C4)nc3c(F)c(-c4ccc(F)c5sc(N)nc45)c(C(F)(F)F)cc23)C[C@H]1C [Compound 190]
IC50 [1]: < 0.5 µM
GDP-KRAS G12C percent of modification [2, 4]: A (percent of modification ≥70%)
GppNHp-KRAS G12C percent of modification [3, 4]: C (10%≤percent of modification <50%)

SMILES: C=CC(=O)N1CC(Nc2nc(O)nc3c(F)c(-c4ccc(F)c5sc(N)nc45)c(Cl)cc23)C1 [Compound 50]
IC50 [1]: > 20 µM
GDP-KRAS G12C percent of modification [2, 5]: C (10%≤percent of modification <50%)
GppNHp-KRAS G12C percent of modification [3, 5]: D (percent of modification <10%)

SMILES: C=CC(=O)N1CC(N(C)c2nc(OCC34CCCN3CCC4)nc3c(F)c(-c4ccc(F)c5sc(N)nc45)c(Cl)cc23)C1 [Compound 84, 1-(3-((7-(2-amino-7-fluorobenzo[d]thiazol-4-yl)-6-chloro-8-fluoro-2-((tetrahydro-1H-pyrrolizin-7a(5H)-yl)methoxy)quinazolin-4-yl)(methyl)amino)azetidin-1-yl)prop-2-en-1-one]
IC50 [1]: < 0.5 µM
GDP-KRAS G12C percent of modification [2, 5]: A (percent of modification ≥70%)
GppNHp-KRAS G12C percent of modification [3, 5]: A (percent of modification ≥70%)

SMILES: C=CC(=O)N1CCN(c2nc(OCC34CCCN3CCC4)nc3c(F)c(-c4ccc(F)c5sc(N)nc45)c(OC)cc23)CC1 [Compound 212]
IC50 [1]: > 20 µM
GDP-KRAS G12C percent of modification [2, 4]: A (percent of modification ≥70%)
GppNHp-KRAS G12C percent of modification [3, 4]: C (10%≤percent of modification <50%)

SMILES: C=CC(=O)N1CC[C@@H]2[C@H]1CN2c1nc(OC[C@@H]2CCCN2C)nc2c(F)c(-c3ccc(F)c4sc(N)nc34)c(Cl)cc12 [Compound 66]
IC50 [1]: 0.5 to 5 µM
GDP-KRAS G12C percent of modification [2, 5]: A (percent of modification ≥70%)
GppNHp-KRAS G12C percent of modification [3, 5]: C (10%≤percent of modification <50%)

SMILES: CC#CC(=O)N1CCN(c2nc(OCC34CCCN3CC(C)(C)C4)nc3c(F)c(-c4ccc(F)c5sc(N)nc45)c(C(F)(F)F)cc23)CC1 (stereo not drawn) [Compound 170]
IC50 [1]: 5 to 20 µM
GDP-KRAS G12C percent of modification [2, 4]: B (50≤percent of modification <70%)
GppNHp-KRAS G12C percent of modification [3, 4]: D (percent of modification <10%)

SMILES: Nc1nc2c(-c3c(Cl)cc4c(NC5CN(C(=O)C(F)Cl)C5)ncnc4c3F)ccc(F)c2s1 (stereo not drawn) [Compound 21, 1-[3-[[7-(2-amino-7-fluoro-1,3-benzothiazol-4-yl)-6-chloro-8-fluoro-quinazolin-4-yl]amino]azetidin-1-yl]-2-chloro-2-fluoro-ethanone]
IC50 [1]: > 20 µM
GDP-KRAS G12C percent of modification [2, 5]: D (percent of modification <10%)
GppNHp-KRAS G12C percent of modification [3, 5]: D (percent of modification <10%)

SMILES: C=CC(=O)N1CC(Nc2nc(OC[C@@H]3C[C@@H](F)CN3C)nc3c(F)c(-c4ccc(F)c5sc(N)nc45)c(C(F)(F)F)cc23)C1 [Compound 77]
IC50 [1]: < 0.5 µM
GDP-KRAS G12C percent of modification [2, 5]: A (percent of modification ≥70%)
GppNHp-KRAS G12C percent of modification [3, 5]: A (percent of modification ≥70%)
